The values below are quoted from earlier work in patent US8486429B2, “Storage stable formulation and a process for its preparation” (priority 2005, dated 2013).

Molecules are shown by their SMILES.

The data set relates to crop plants. Particulars: in vivo; cited from earlier work.

`CCN(CC)C(=O)C(Cl)=C(C)OP(=O)(OC)OC` [Phosphamidon, 2-chloro-2-diethylcarbamoyl-1-methylvinyldimethylphosphate]: the “phytotoxicity” value was “non-phytotoxic, except some varieties of cherry, plum, peach and sorghum”.
